Experimental data as given in PubChem BioAssay AID488839 (Broad Institute, 2010).
The list shows a part of the results, in another mix than the full data. The source made the active and inactive calls.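 Rule for the calls: active = highest replicate inhibition of at least 50% and at least 75% of replicates reaching 50%; inconclusive = only one of the two criteria met; inactive = both criteria failed.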

Protein sequences, listed by entry. Tags and fused reporters are not part of them.
UniProt Q00535, whole entry, looked up: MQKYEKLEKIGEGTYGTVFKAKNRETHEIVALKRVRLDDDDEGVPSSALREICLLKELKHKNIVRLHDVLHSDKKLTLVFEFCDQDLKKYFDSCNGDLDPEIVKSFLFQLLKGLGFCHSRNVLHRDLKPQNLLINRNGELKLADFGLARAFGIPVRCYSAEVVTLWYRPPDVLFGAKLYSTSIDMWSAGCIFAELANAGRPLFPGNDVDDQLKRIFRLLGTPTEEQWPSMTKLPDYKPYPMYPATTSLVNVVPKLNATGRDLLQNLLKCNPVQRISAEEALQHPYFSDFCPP
UniProt Q15078, whole entry, looked up: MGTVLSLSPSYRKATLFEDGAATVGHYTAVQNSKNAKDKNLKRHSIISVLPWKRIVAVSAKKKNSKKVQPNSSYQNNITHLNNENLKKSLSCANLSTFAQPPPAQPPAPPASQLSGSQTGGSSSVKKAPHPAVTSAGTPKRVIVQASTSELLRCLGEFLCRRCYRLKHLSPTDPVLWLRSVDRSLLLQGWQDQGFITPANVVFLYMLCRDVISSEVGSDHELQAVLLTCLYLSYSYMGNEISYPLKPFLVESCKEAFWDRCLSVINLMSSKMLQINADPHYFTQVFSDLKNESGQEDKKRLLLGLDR

biological target: Cyclin-dependent kinase 5 (Homo sapiens) + Cyclin-dependent kinase 5 activator 1 (Homo sapiens) (UniProt Q00535+Q15078); test: inhibitors of human CDK5/p35 kinase, primary screen, biochemical, single concentration (AID 488839); details: Recombinant CDK5/p35, ADP-Glo luminescence, 60 min; at 10 µM; hits give high values;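 note: plate controls were DMSO neutral control for no effect and GW8510 at 10 µM for full effect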

| SMILES | inhibition |
| --- | --- |
| O=C(OC1CN2CCC1CC2)C1c2ccccc2C=Cc2ccccc21 (centres undefined) | inactive: -1.43% |
| CCOC(=O)N1CCC(Nc2ccc(C)cc2)CC1 | inactive: 2.29% |
| N/C(=N\O)c1c(N)no[n+]1[O-] | inactive: -0.952% |
| COc1ccc(C(=O)NCC2(N3CCOCC3)CCCCC2)cc1OC | inactive: -0.104% |
| COc1cc(C(=O)NCC2(N3CCOCC3)CCCCC2)cc(OC)c1C | inactive: 0.106% |
| O=C(NCC1(N2CCOCC2)CCCCC1)c1cc(Br)ccc1Cl | inactive: -4.82% |
| CN(C)C1(CNC(=O)c2cccc(C#N)c2)CCCCC1 | inactive: -1.68% |
| CCCN1CCC(Nc2cc(OC)cc(OC)c2)CC1 | inactive: 1.5% |
| Cc1cc(N(CCCl)CCCl)ccc1C=O | inactive: 0.377% |
| c1ccc(CN2CCC(Nc3ccccc3)CC2)cc1 | inactive: -0.336% |
| N#Cc1ccc(C(=O)NCC2(N3CCCCC3)CCCCC2)cc1 | inactive: 1.17% |
| CC(C)(C)OC(=O)N1CCC(N(C(=O)c2ccccc2)c2ccc(Cl)cc2)CC1 | inactive: -2.24% |
| Cn1c(=O)[nH]cc(N(CCCl)CCCl)c1=O | inactive: -0.268% |
| CN(C)c1ccc(C(=O)NCC2(N3CCCCC3)CCCCC2)cc1 | inactive: -2.64% |
| O=C(NCC1(N2CCCCC2)CCCCC1)c1ccco1 | inactive: 1.69% |
| CCN1CCC(Nc2cccc(F)c2)CC1 | inactive: 0.792% |
| Cc1ccccc1NC1(C#N)CCN(Cc2ccccc2)CC1 | inactive: -1.99% |
| Fc1ccccc1NC1CCN(Cc2ccccc2)CC1 | inactive: -0.178% |
| Cc1ccc(C(=O)NCC2(N3CCCCC3)CCCCC2)o1 | inactive: 0.295% |
| Cc1ccc(NC2(C#N)CCN(Cc3ccccc3)CC2)cc1 | inactive: 1.57% |
| CC(=O)N(c1ccccc1)C1CCNCC1 | inactive: -0.0881% |
| COc1cc(OC)cc(C(=O)NCC2(N3CCCCC3)CCCCC2)c1 | inactive: 0.793% |
| CN1CCC(Nc2ccc(Cl)cc2)CC1 | inactive: -0.94% |
| COc1cccc(C(=O)N(c2cc(C)cc(C)c2)C2CCN(C(=O)OC(C)(C)C)CC2)c1 | inactive: 1.92% |
| COc1cc(OC)cc(C(=O)NCC2(N3CCOCC3)CCCCC2)c1 | inactive: -0.175% |

| SMILES | inhibition |
| --- | --- |
| CCC(CO)(C(=O)OC1CN2CCC1CC2)c1ccccc1 (centres undefined) | inactive: 1.96% |
| O=C(O)C1(Nc2ccccc2)CCN(Cc2ccccc2)CC1 | inactive: -0.22% |
| CC(C)(C)OC(=O)N1CCC(Nc2ccccc2)CC1 | inactive: 1.81% |
| CCCOc1ccc(C(=O)NCC2(N(C)C)CCCCC2)cc1 | inactive: 0.0188% |
| CN1CCC(Nc2ccc(F)c(Cl)c2)CC1 | inactive: -2.96% |
| CCOc1ncccc1C(=O)NCC1(N2CCOCC2)CCCCC1 | inactive: 1.48% |
| COc1ccc(Cl)cc1C(=O)NCC1(N2CCOCC2)CCCCC1 | inactive: -1.3% |
| O=C(OC1CN2CCC1CC2)C1c2ccccc2Oc2ccccc21 (centres undefined) | inactive: 1.35% |
| N#CC1(Nc2ccccc2)CCN(Cc2ccccc2)CC1 | inactive: 0.785% |
| O=C(NCC1(N2CCCCC2)CCCCC1)c1ccc(Cl)s1 | inactive: -0.356% |
| CCOC(=O)N1CCC(Nc2ccc(OC)cc2)CC1 | inactive: -2.08% |
| Cc1cc(C)cc(N(C(=O)c2ccccc2)C2CCN(C(=O)OC(C)(C)C)CC2)c1 | inactive: -0.504% |
| O=C(NCC1(N2CCCCC2)CCCCC1)c1ccc(Cl)nc1 | inactive: 0.166% |
| O=C(NCC1(N2CCOCC2)CCCCC1)c1cc2ccccc2o1 | inactive: 1.26% |
| Cc1cccc(NC2(C#N)CCN(Cc3ccccc3)CC2)c1 | inactive: -1.88% |
| CSc1ccccc1C(=O)NCC1(N2CCCCC2)CCCCC1 | inactive: -0.422% |
| COc1ccc(C(=O)NCC2(N3CCCCC3)CCCCC2)c(OC)c1OC | inactive: 5.49% |
| CC(C)(C)OC(=O)N1CCC(N(C(=O)c2ccccc2)c2ccc(F)cc2)CC1 | inactive: 1.21% |
| COc1ccc(C(=O)NCC2(N3CCCCC3)CCCCC2)cc1 | inactive: -1.41% |
| O=C(NCC1(N2CCCCC2)CCCCC1)c1cccs1 | inactive: -2.52% |
| O=C(NCC1(N2CCCCC2)CCCCC1)c1ccc(=O)[nH]c1 | inactive: -1.02% |
| COc1cc(C(=O)NCC2(N(C)C)CCCCC2)ccc1OC(F)F | inactive: 1.76% |
| CCOC(=O)N1CCC(Nc2cccc(C)c2)CC1 | inactive: -0.472% |
| CCOC(=O)N1CCC(Nc2ccc(F)cc2)CC1 | inactive: -0.864% |
| COc1ccc(NC2CCN(CCc3ccccc3)CC2)c(OC)c1 | inactive: -0.196% |

| SMILES | inhibition |
| --- | --- |
| O=C(NCC1(N2CCCCC2)CCCCC1)c1ccc(F)cc1 | inactive: 1.22% |
| CCCCOc1ccc(C(=O)NCC2(N3CCOCC3)CCCCC2)cc1 | inactive: -0.87% |
| O=P1(N(CCCl)CCCl)SCCCS1 | inactive: 1.23% |
| O=C1CCN(Cc2ccccc2)CC1 | inactive: -0.0792% |
| CCOc1ccc(C)cc1CN(CCCl)CCCl | inactive: -2.34% |
| O=C(NCC1(N2CCOCC2)CCCCC1)c1cc(=O)[nH]c2ccccc12 | inactive: -1.28% |
| COc1cc(C(=O)NCC2(N3CCCCC3)CCCCC2)ccc1OC(F)F | inactive: -4.33% |
| COc1ccc(NC2CCN(C(=O)OC(C)(C)C)CC2)cc1 | inactive: 0.654% |
| CC(C)c1ccc(C(=O)NCC2(N3CCOCC3)CCCCC2)cc1 | inactive: -1.5% |
| CN1CCN(CCOC(=O)C(O)(c2ccccc2)c2ccccc2)CC1 | inactive: 0.393% |
| O=C(NCC1(N2CCCCC2)CCCCC1)c1cccc(C(F)(F)F)c1 | inactive: -2.08% |
| N#CC1(Nc2ccccc2)CCN(CCc2ccccc2)CC1 | inactive: -0.94% |
| CCN1CCC(Nc2ccc(Cl)cc2)CC1 | inactive: 0.452% |
| CSc1ccc(C(=O)NCC2(N3CCOCC3)CCCCC2)cc1 | inactive: 2.32% |
| O=C(NCC1(N2CCCCC2)CCCCC1)c1cccc([N+](=O)[O-])c1 | inactive: 0.38% |
| O=C(NCC1(N2CCCCC2)CCCCC1)c1ccc(OC(F)F)cc1 | inactive: 2.49% |
| CCCOc1ccc(C(=O)NCC2(N(C)C)CCCCC2)cc1OC | inactive: -1.03% |
| O=C(NCC1(N2CCCCC2)CCCCC1)c1cncc(Br)c1 | inactive: -1.2% |
| CN1CCC(Nc2cccc(F)c2)CC1 | inactive: 0.816% |
| O=C(NCC1(N2CCOCC2)CCCCC1)c1cc(F)c(F)cc1Cl | inactive: 1.7% |
| COc1cc(OC)c(C(=O)NCC2(N(C)C)CCCCC2)cc1OC | inactive: 1.51% |
| CC(C)c1ccc(NC2CCN(C(=O)OC(C)(C)C)CC2)cc1 | inactive: 0.509% |
| CN(C)c1cccc(C(=O)NCC2(N3CCCCC3)CCCCC2)c1 | inactive: -0.985% |
| COc1ccc(CN(CCCl)CCCl)cc1Cl | inactive: 0.393% |
